The subject of the data set is LQLQPFPQPQLPYPQPQLPYPQPQLPYPQPQPF
The experiment in a line: purified protein, by the assay type. The following applies: other: deamidation by tTGase.

Usually kcat/Km stands for the second-order rate constant that governs catalysis at low substrate concentration. For the substance “tissue transglutaminase (tTGase) (Homo sapiens)”, the kcat/Km worked out at 7330 M⁻¹ s⁻¹.

The values above are taken from patent US20080299108A1, “Peptides for Diagnostic and Therapeutic Methods for Celiac Sprue” (priority 2005, published 2008).
